Experimental data: PMC5481443, “High-throughput Screening of Small Molecule Inhibitors of the Streptococcus Quorum-sensing Signal Pathway” (Scientific Reports, 2017)

System: CC(C)C[C@H](NC(=O)[C@H](CCC(=O)O)NC(=O)[C@H](CCCCN)NC(=O)[C@H](CCC(=O)O)NC(=O)[C@H](CC(N)=O)NC(=O)[C@H](CC(C)C)NC(=O)[C@@H](NC(=O)[C@@H]1CCCN1C(=O)[C@H](Cc1ccccc1)NC(=O)[C@H](CCC(N)=O)NC(=O)[C@H](C)N)C(C)C)C(=O)N[C@@H](CCCCN)C(=O)N[C@@H](CCC(=O)O)C(=O)N[C@H](C(=O)N[C@@H](CC(C)C)C(=O)NCC(=O)NCC(=O)Nc1ccc2c(C(F)(F)F)cc(=O)oc2c1)C(C)C
Assay: purified protein, by the assay type
Conditions: other: saturation curve, pH 7.0, 25 °C, Fig. S1

Substance: S. pneumoniae PEP (Streptococcus pneumoniae TIGR4)
- Km: 7.9 µM
- kcat: 0.00217 s⁻¹
